Measured values published in PubChem BioAssay (NCI).
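Method: 48-hour compound exposure of cells in 96-well plates, five concentrations, linear interpolation of endpoints. TGI: total growth inhibition.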

Experiments:
Assay in all cases: NCI-60 cell line screen, 48 h
DU-145 prostate = tested on: DU-145 prostate
NCI-H226 lung = tested on: NCI-H226 lung
ACHN renal = tested on: ACHN renal
NCI/ADR-RES ovarian = tested on: NCI/ADR-RES ovarian
HOP-62 NSCLC = tested on: HOP-62 NSCLC
SF-295 CNS = tested on: SF-295 CNS
MALME-3M melanoma = tested on: MALME-3M melanoma
CAKI-1 renal = tested on: CAKI-1 renal
OVCAR-4 ovarian = tested on: OVCAR-4 ovarian
T-47D breast = tested on: T-47D breast
SR leukemia = tested on: SR leukemia
OVCAR-3 ovarian = tested on: OVCAR-3 ovarian
TK-10 renal = tested on: TK-10 renal
SF-539 CNS = tested on: SF-539 CNS
SK-MEL-28 melanoma = tested on: SK-MEL-28 melanoma
HCT-15 colon = tested on: HCT-15 colon
786-0 renal = tested on: 786-0 renal
MDA-MB-231 breast = tested on: MDA-MB-231 breast
OVCAR-8 ovarian = tested on: OVCAR-8 ovarian
HCT-116 colon = tested on: HCT-116 colon
RPMI-8226 leukemia = tested on: RPMI-8226 leukemia
A549 NSCLC = tested on: A549 NSCLC
SK-MEL-2 melanoma = tested on: SK-MEL-2 melanoma
PC-3 prostate = tested on: PC-3 prostate
UACC-62 melanoma = tested on: UACC-62 melanoma
SK-MEL-5 melanoma = tested on: SK-MEL-5 melanoma
U251 CNS = tested on: U251 CNS
MOLT-4 leukemia = tested on: MOLT-4 leukemia
A498 renal = tested on: A498 renal
BT-549 breast = tested on: BT-549 breast
HL-60(TB) leukemia = tested on: HL-60(TB) leukemia
M14 melanoma = tested on: M14 melanoma
UO-31 renal = tested on: UO-31 renal
EKVX NSCLC = tested on: EKVX NSCLC
SN12C renal = tested on: SN12C renal
HOP-92 NSCLC = tested on: HOP-92 NSCLC
SNB-19 CNS = tested on: SNB-19 CNS
KM12 colon = tested on: KM12 colon
COLO 205 colon = tested on: COLO 205 colon
SF-268 CNS = tested on: SF-268 CNS
SW-620 colon = tested on: SW-620 colon
NCI-H23 lung = tested on: NCI-H23 lung
MDA-N = tested on: MDA-N
MDA-MB-435 = tested on: MDA-MB-435
HT29 colon = tested on: HT29 colon
IGROV1 ovarian = tested on: IGROV1 ovarian
HS 578T breast = tested on: HS 578T breast
NCI-H522 lung = tested on: NCI-H522 lung
SK-OV-3 ovarian = tested on: SK-OV-3 ovarian
OVCAR-5 ovarian = tested on: OVCAR-5 ovarian
UACC-257 melanoma = tested on: UACC-257 melanoma
K-562 leukemia = tested on: K-562 leukemia

Measured: TGI

CN(C(=O)[C@@H](N)c1ccccc1)[C@H]1CCCC[C@@H]1N1CCCC1
> 100 µM: all assays above
